The values below come from patent publication US6265551A, “Form of dipeptidylpeptidase IV (CD26) found in human serum, antibodies thereto, and uses thereof” (Dana-Farber Cancer Institute, Inc., priority 1996, dated 2001).

Protein sequences, listed by entry. Tags and fused reporters are not part of them. Residues count along the entry.
UniProt P27487, 29-766 limits assumed: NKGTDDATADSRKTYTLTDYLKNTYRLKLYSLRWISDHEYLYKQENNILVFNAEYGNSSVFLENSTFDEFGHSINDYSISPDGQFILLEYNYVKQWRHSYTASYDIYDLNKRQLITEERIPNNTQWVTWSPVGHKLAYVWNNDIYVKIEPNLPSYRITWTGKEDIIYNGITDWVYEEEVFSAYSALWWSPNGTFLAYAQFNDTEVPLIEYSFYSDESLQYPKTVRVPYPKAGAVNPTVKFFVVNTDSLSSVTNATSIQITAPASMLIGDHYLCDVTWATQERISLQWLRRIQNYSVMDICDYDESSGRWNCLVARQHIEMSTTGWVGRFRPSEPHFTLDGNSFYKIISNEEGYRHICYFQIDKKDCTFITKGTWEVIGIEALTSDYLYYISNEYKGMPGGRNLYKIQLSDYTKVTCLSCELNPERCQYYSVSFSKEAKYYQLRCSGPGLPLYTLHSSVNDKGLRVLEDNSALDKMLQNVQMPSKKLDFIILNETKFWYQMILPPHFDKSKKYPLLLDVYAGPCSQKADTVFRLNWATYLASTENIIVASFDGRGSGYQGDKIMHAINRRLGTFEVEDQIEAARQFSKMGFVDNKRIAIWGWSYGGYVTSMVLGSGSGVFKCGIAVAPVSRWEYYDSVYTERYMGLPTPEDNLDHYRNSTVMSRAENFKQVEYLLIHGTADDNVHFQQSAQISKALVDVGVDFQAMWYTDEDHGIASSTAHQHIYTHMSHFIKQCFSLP

Molecules are shown by their SMILES.

The experiment addresses recombinant soluble CD26 (rsCD26), full extracellular domain of human T cell membrane CD26/DPPIV, 105 kDa form, from transfected CHO cells (Homo sapiens, UniProt P27487). Nature of the experiment: DPPIV enzyme activity: Gly-Pro-pNA hydrolysis, Michaelis-Menten kinetics and inhibition.

For orientation: IC50 means the concentration at which inhibition is half-maximal. In the case of `CC[C@H](C)[C@H](N)C(=O)N1CCC[C@H]1C(=O)N[C@H](C(=O)O)[C@@H](C)CC` [Diprotin A], the IC50 is 125 µM.
